# Biological target: rat D3 receptors (Rattus norvegicus, UniProt P19020)
# Protein sequences, listed by entry. Tags and fused reporters are not part of them.
# UniProt P19020, whole entry: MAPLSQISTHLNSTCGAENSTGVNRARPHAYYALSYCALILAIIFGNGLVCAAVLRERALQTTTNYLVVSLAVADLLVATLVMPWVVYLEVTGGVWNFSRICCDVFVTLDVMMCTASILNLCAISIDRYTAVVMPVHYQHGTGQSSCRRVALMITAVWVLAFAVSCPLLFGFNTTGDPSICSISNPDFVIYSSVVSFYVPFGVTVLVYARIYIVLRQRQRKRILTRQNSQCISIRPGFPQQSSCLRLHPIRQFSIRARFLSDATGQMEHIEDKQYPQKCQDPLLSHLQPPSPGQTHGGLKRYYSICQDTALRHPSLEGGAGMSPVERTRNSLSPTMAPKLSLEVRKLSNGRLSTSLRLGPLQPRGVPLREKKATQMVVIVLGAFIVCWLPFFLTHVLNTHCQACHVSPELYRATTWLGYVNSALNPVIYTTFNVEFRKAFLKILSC
# Test: [3H]spiperone binding inhibition, HEK-293 cells expressing D3 receptors
# Conditions: selectivity, Ki D2 / Ki D3, [3H]spiperone binding
structure (smiles),measurement,value
"CCCN(CCC)C1CCc2c(O)cccc2C1 (single isomer, unassigned; (-)) [(−)-5-OH-DPAT]",D2/D3 (ratio of Ki),43.2

# — article PMC2939917 (Bioorganic & medicinal chemistry, 2010)
